One test deals with Carbonic anhydrase 1 (Homo sapiens, UniProt P00915). The test can be described thus: Inhibition of esterase activity of human carbonic anhydrase 1 by CO2 hydration method.
For the next test, the target named is Carbonic anhydrase 13 (Mus musculus, UniProt Q9D6N1). Put plainly: Inhibition of esterase activity of mouse carbonic anhydrase 13 by CO2 hydration method.
The next test concerns the target Carbonic anhydrase 2 (Homo sapiens, UniProt P00918). The test can be described thus: Inhibition of esterase activity of human carbonic anhydrase 2 by CO2 hydration method.

Sequences of proteins named here, by UniProt entry; tags and fusion partners are left off. A change or cut given only in a name is not applied to a line headed by its entry. Residues count along the entry.
UniProt P00915, 2-261 limits assumed: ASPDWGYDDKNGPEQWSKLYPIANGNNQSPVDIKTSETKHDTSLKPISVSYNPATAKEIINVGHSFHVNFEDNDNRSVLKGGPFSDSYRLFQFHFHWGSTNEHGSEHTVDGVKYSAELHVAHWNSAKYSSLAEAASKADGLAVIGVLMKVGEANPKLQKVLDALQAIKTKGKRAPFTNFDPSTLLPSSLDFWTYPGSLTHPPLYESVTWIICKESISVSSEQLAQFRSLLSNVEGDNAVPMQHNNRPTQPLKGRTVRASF
UniProt Q9D6N1: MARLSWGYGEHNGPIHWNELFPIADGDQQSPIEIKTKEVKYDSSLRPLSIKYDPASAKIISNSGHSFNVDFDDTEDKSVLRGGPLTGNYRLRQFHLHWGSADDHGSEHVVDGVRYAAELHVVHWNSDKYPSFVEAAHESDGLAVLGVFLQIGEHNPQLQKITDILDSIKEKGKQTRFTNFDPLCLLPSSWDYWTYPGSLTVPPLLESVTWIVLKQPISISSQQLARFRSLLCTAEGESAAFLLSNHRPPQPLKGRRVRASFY

Data on 2 molecules can be found in ChEMBL document CHEMBL1268884, “Paraoxon, 4-nitrophenyl phosphate and acetate are substrates of α- but not of β-, γ- and ζ-carbonic anhydrases” (2010).

By IC50 is commonly meant the point on the concentration scale where inhibition reaches its midpoint.

Regarding `O=[N+]([O-])c1ccc(OP(=O)(O)O)cc1`, the 50% inhibitory concentration (IC50) against Carbonic anhydrase 1 worked out at 330 nM; at Carbonic anhydrase 13 it was 1050 nM; on Carbonic anhydrase 2, 63 nM.
The matching figures for `CCOP(=O)(OCC)Oc1ccc([N+](=O)[O-])cc1`: 338 nM, 1020 nM and 59 nM.
